Here are results for 1 compound from article PMC2980575 (Analytical biochemistry, 2010).

SMILES strings stand for the structures.

This experiment has as its target T1, HDAC8 (Homo sapiens, UniProt Q9BY41).
T1 sequence (Q9BY41 1-377): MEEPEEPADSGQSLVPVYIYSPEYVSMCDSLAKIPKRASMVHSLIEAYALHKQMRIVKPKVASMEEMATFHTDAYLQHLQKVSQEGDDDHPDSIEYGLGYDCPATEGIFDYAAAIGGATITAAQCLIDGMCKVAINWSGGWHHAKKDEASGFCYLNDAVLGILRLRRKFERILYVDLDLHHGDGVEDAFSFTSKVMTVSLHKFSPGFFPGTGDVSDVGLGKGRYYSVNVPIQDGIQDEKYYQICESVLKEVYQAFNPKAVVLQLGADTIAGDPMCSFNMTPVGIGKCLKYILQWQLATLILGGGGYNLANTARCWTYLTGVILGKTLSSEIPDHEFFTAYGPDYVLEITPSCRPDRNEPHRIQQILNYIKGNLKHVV
As to the kind of experiment: Trypsin-coupled steady-state kinetic assay with Fluor de Lys substrate. The class given is biochemical.

In the case of `O=C(CCCCCCC(=O)Nc1ccccc1)NO` [SAHA, suberoylanilide hydroxamic acid], the inhibition constant Ki worked out at 290 ± 40 nM.
